These results are taken from patent US20240383922A1, “KRAS Modulating Compounds” (Gilead Sciences, Inc., priority 2023, published 2024).

In assay [1] the test system is cellular pERK in ASPC-1 (KRAS G12D) cell-line. The assay can be described thus: Cell based pERK assay (HTRF), ASPC-1. The note with it: read-out: AsPC1 pERK EC50; ASPC-1 (KRAS G12D) cells, 2 hours incubation; tested form: TFA. On the technique in general: Time-resolved FRET reads energy transfer from a long-lived donor to a nearby acceptor.
Assay [2] has as its system cellular pERK in NCI-H441 (KRAS-G12V) cell-line. The assay can be described thus: Cell based pERK assay (HTRF), NCI-H441. The settings on record: read-out: H441 pERK EC50; NCI-H441 (KRAS-G12V) cells, 2 hours incubation; tested form: TFA.
Assay [3] relates to cellular pERK in Kuramochi (WT KRAS) cell-line. Kind of assay: Cell based pERK assay (HTRF), Kuramochi. The settings on record: read-out: Kuramochi pERK EC50; Kuramochi (WT KRAS) cells, 2 hours incubation; tested form: TFA.
Assay [4] has as its system cellular pERK in MIA-PaCa-2 (KRAS-G12C) cell-line. Kind of assay: Cell based pERK assay (HTRF), MIA-PaCa-2. The settings on record: read-out: MIAPaCa2 pERK EC50; MIA-PaCa-2 (KRAS-G12C) cells, 2 hours incubation; tested form: TFA.

pEC50: −log10 of the molar value.

A word on the pEC50: it is the negative decadic logarithm of the EC50, by convention in mol/L. Regarding `C#Cc1c(F)ccc2cc(O)cc(-c3nc4c5c(nc(OC[C@@]67CCCN6C[C@H](F)C7)nc5c3F)N3CCCOCC3CCC4)c12` (stereo partly drawn), the pEC50 in assay [1] is 6.95; in assay [2], 7.20; in assay [3], 7.67; in assay [4] it was 7.51.

Take `C#Cc1c(F)ccc2cc(O)cc(-c3nc4c5c(nc(OC[C@@]67CCCN6C[C@H](F)C7)nc5c3F)N3CCOCCC3CCC4)c12` (stereo partly drawn): the pEC50 in assay [1] and in assay [2] was less than 6.00 throughout.
